Earlier results in US20240115569A1, “METHODS FOR BLOCKING HER2 SIGNALING FOR TREATING PULMONARY FIBROSIS” (CEDARS-SINAI MEDICAL CENTER, priority 2021, published 2024).

Protein sequences, listed by entry. Tags and fused reporters are not part of them. Residues count along the entry.
UniProt P08637, 17-254: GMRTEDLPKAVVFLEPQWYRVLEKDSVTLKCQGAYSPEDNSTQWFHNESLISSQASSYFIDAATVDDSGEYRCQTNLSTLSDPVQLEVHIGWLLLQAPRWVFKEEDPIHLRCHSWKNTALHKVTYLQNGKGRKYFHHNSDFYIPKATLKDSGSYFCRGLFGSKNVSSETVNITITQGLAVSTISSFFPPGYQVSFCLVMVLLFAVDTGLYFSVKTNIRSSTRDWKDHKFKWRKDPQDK

Experiments:
CD16A FcγRIIIA = CD16A FcγRIIIA (Homo sapiens, UniProt P08637); conditions: in comparison to trastuzumab; cited from earlier work
CD32B FcγRIIB = target: T1, CD32B FcγRIIB (Homo sapiens, UniProt P31994); conditions: in comparison to trastuzumab; cited from earlier work
T1 sequence (P31994 43-310): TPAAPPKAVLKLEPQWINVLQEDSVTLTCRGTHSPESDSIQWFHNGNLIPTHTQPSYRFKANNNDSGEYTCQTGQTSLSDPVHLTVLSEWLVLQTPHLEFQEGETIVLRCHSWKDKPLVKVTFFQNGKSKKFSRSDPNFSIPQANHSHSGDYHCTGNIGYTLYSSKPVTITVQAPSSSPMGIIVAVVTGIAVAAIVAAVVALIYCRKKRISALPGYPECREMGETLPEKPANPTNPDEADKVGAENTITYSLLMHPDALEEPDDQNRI

Substance: margetuximab-cmkb: monoclonal antibody derivative of trastuzumab that binds to the same epitope of the HER2 receptor, engineered IgG1 Fc region
- greater affinity for stimulatory CD16A FcγRIIIA (CD16A FcγRIIIA): up to 6.6 ×
- less affinity for inhibitory CD32B FcγRIIB (CD32B FcγRIIB): 8.4 ×
